Chains of the proteins cited; added tags and fusions are not shown. Residues count along the entry.
UniProt P78536, 215-824 limits assumed: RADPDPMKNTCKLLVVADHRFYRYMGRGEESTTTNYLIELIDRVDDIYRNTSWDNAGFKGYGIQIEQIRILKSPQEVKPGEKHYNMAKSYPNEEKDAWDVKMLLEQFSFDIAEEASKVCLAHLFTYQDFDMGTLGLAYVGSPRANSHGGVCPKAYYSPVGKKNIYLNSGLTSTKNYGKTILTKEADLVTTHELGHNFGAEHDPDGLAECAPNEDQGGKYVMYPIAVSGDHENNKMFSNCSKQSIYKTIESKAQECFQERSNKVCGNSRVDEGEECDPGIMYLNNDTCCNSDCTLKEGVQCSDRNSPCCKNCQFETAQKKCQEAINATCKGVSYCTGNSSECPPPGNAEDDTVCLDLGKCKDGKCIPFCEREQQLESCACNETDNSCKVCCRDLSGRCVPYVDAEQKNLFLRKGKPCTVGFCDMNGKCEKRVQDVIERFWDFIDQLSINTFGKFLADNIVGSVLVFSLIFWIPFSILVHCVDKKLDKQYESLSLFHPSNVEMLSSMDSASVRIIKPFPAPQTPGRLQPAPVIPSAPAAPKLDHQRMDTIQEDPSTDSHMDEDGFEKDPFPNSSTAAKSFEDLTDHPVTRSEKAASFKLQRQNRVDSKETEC

This is a selection; strong and weak results do not stand in their true shares. Active and inactive are the calls of the source.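 The calls were made as follows: active = mean inhibition across replicates above the hit cutoff set in the primary screen (cut at about 8.5% in these data); inactive = the rest.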
What follows are compounds tested against Disintegrin and metalloproteinase domain-containing protein 17 (Homo sapiens) (UniProt P78536) (assay: inhibition of human ADAM17 protease activity – biochemical, QFRET peptide cleavage, confirmation (AID 743257;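 also: 0% = DMSO wells and 100% = marimastat wells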)). Settings: recombinant ADAM17, EDANS/DABCYL QFRET peptide cleavage; at 6.95 µM; stronger effect = higher value.
Method in brief: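 Test system: human ADAM17 enzyme, FRET peptide cleavage; medium: 50 mM HEPES buffer, pH 7.5, with 0.01% Brij; incubation: 30 min preincubation plus 3 h reaction at 25 °C; measured by: fluorescence at ex 359 nm, em 460 nm; control set: DMSO and 1 µM marimastat control wells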
In the case of CC(C)(C)n1nnnc1C(c1cccc2ccccc12)N1CCC(n2c(=O)[nH]c3ccccc32)CC1 (stereo unspecified), the inhibition is reported as active: 20.5%.
